# Source: PubChem BioAssay AID492972 (The Scripps Research Institute Molecular Screening Center, 2010)
# Protein sequences, listed by entry. Tags and fused reporters are not part of them.
# UniProt Q15102, whole entry: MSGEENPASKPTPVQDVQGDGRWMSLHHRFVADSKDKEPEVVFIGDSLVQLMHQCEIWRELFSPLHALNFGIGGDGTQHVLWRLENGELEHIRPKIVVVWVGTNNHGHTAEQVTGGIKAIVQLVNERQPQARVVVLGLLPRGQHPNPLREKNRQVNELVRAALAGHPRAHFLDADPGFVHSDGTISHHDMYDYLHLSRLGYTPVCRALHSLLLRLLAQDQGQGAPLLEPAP
# The list shows a part of the results, in another mix than the full data. Some of these compounds have results that are not shown, active ones among them. Calls of active or inactive are those of the source.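 How the source made its calls: active means inhibition above the screen-wide average of all tested compounds plus 3 SD (cut at about 25% in these data); inactive means the rest.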
# Target: Platelet-activating factor acetylhydrolase IB subunit alpha1 (Homo sapiens) (UniProt Q15102)
# Experiment: inhibition of PAF acetylhydrolase 1B subunit 3 – biochemical, fluorescence polarization, human, primary screen (AID 492972);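 further: 0% = enzyme with DMSO only and 100% = wells lacking PAFAH1B3 protein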
# Settings: recombinant PAFAH1B3, FP-rhodamine probe, at 3.39 µM, hits give high values
row,Structure (SMILES),inhibition
1,CN1[C@@H]2CC[C@H]1CC(OC(=O)C(O)(c1ccccc1)c1ccccc1)C2 (stereo not given in full),inactive: 6.95%
2,O=C(NCC1(N2CCCCC2)CCCCC1)c1cc([N+](=O)[O-])ccc1Cl,inactive: 7.61%
3,Cc1ccc(C(=O)NCC2(N3CCCCC3)CCCCC2)cc1,inactive: 0.56%
4,CC(C)N1C(=O)CC2(CCN(CCOC(=O)C(O)(c3ccccc3)c3ccccc3)CC2)C1=O,inactive: 6.21%
5,CCN(CC)CC(C)C(C)OC(=O)C(O)(c1ccccc1)c1ccccc1 (stereo not given),inactive: -1.99%
6,COc1cc(SC)ccc1C(=O)NCC1(N(C)C)CCCCC1,inactive: 8.13%
7,Cc1ccccc1C(=O)NCC1(N2CCCCC2)CCCCC1,inactive: -2.9%
8,CN(C)C1CCCC1OC(=O)C(O)(c1ccccc1)c1ccccc1 (stereo not given),inactive: 5.38%
9,CN(C)c1ccc(C(=O)NCC2(N(C)C)CCCCC2)cc1,inactive: 3.53%
10,Cc1cc(C(=O)NCC2(N3CCCCC3)CCCCC2)ccc1[N+](=O)[O-],inactive: -2.38%
11,CCN1CCCC(OC(=O)C2(O)c3ccccc3C=Cc3ccccc32)C1 (stereo not given),inactive: -1%
12,O=C(NCC1(N2CCCCC2)CCCCC1)c1cccc(Br)c1,inactive: -4.06%
13,COc1ccc(C(=O)NCC2(N(C)C)CCCCC2)cc1,inactive: 3.93%
14,C=CCN1CCN(CCOC(=O)C(O)(c2ccccc2)c2ccccc2)CC1,inactive: 3.53%
15,O=C(NCC1(N2CCCCC2)CCCCC1)c1cc(F)c(F)cc1Cl,inactive: 6.23%
16,COc1cc(C(=O)NCC2(N(C)C)CCCCC2)c([N+](=O)[O-])cc1OC,inactive: 15.1%
17,CN(C)C1(CNC(=O)c2ccc(Br)cc2)CCCCC1,inactive: 4.45%
18,O=C(NCC1(N2CCCCC2)CCCCC1)c1cccc(Cl)c1,inactive: 16.7%
19,COc1cccc(C(=O)NCC2(N3CCCCC3)CCCCC2)c1,inactive: 4.35%
20,COc1ccc(Cl)cc1C(=O)NCC1(N(C)C)CCCCC1,inactive: 8.09%
21,O=C(OC1CN2CCC1CC2)C(CO)(c1ccccc1)c1ccccc1 (stereo not given),inactive: -3.08%
22,CN(C)c1cccc(C(=O)NCC2(N(C)C)CCCCC2)c1,inactive: -6.24%
23,CC(C)Oc1ccc(C(=O)NCC2(N(C)C)CCCCC2)cc1,inactive: 7.81%
24,O=C(OCCN1CCCC1)C(O)(c1ccccc1)c1ccccc1,inactive: 2.94%
25,COc1ccc(Br)c(C(=O)NCC2(N3CCCCC3)CCCCC2)c1,inactive: -3.88%
